These results are taken from patent publication US20160257930A1, “NEURONAL STEM CELL DIFFERENTIATION” (priority 2013, published 2016).

The test system of this assay is iPS-derived neurons. The experiment in a line: Whole-cell patch-clamp, current clamp: spontaneous action potentials and resting Vm. The class given is cell-based, human. The following applies: week 2, 1.8 mM Ca2+; 300 μM GABA added to 100 nM conotoxin; 1 μM BayK 8644 added to 10 μM bicuculline. (Patch clamp records ionic current or voltage across a cell membrane.)

Turning to `NCCCC(=O)O` [GABA, γ-aminobutyric acid], the “rescue of spontaneous activity / excitability” value was “re-established the ability of cells to fire action potentials”.
